Here are results for 1 molecule from patent publication US8975259B2, “Compositions and methods for inhibiting G protein signaling” (University of Rochester, priority 2007, dated 2015).

Each structure is given as a SMILES string.

The test deals with acute morphine antinociceptive tolerance in mice. The experiment in a line: Acute morphine antinociceptive tolerance (repeated i.c.v. dosing, tail-flick). The test is classed as in vivo, mouse. The following applies: morphine alone.

On to `CN1CC[C@]23c4c5ccc(O)c4O[C@H]2[C@@H](O)C=C[C@H]3[C@H]1C5.O=S(=O)(O)O` [morphine, Morphine sulfate], for which the “shift of morphine ED50 from time 0” value stood at 8 fold (4 hr) and 16 fold (6 hr).
